Results reported in PubChem BioAssay AID813 (Sanford-Burnham Center for Chemical Genomics, 2007).
The entries are a selection whose mix differs from that of the whole data set. Calls of active or inactive are those of the source.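 Rule for the calls: active = activation factor of at least 2 at 20 µM, relative to controls; inactive = the rest.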

Sequences of proteins named here, by UniProt entry; tags and fusion partners are left off. A change or cut given only in a name is not applied to a line headed by its entry.
UniProt P05186: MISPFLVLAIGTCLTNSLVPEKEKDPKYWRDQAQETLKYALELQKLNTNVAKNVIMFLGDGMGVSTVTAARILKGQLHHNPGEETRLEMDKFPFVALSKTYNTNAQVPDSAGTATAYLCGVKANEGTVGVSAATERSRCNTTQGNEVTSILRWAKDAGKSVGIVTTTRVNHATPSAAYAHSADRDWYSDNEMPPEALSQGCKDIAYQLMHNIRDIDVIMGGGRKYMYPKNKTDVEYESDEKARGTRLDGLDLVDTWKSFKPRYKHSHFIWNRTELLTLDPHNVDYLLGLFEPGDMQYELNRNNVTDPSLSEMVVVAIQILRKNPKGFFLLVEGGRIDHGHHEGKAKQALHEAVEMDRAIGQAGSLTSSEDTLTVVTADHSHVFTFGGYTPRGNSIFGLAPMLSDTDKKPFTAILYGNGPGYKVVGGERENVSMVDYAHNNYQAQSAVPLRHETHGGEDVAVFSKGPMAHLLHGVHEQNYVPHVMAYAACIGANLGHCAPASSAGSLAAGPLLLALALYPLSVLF

target: Alkaline phosphatase, tissue-nonspecific isozyme (Homo sapiens) (UniProt P05186); assay: human TNAP enzyme activators, primary screen, biochemical, luminescent, intermediate phosphate acceptor level (AID 813); conditions: purified TNAP, CDP-star luminescence, 100 mM DEA, 30 min; at 20 µM; hits give high values; scale: 0 levamisole-inhibited, 1 vehicle-only enzyme

| SMILES | activation factor |
| --- | --- |
| O=C(OC1CN2CCC1CC2)C12CC3CC(CC(C3)C1)C2 (configuration not stated) | inactive: 1 |
| O=P1(Nc2ncccn2)COc2ccccc2OC1 | inactive: 1 |
| Clc1n[nH]nc1-c1nn[nH][15n]1 | inactive: 1 |
| CCOP1(=S)c2c(C)nn(CCC#N)c2N=C(c2ccc(F)cc2)N1C (configuration not stated) | inactive: 1 |
| COC(=O)c1cc2c(s1)N=C(c1ccccc1)N(C)P2(=O)N1CCOCC1 (configuration not stated) | inactive: 1 |
| O=P(Nc1nccs1)(c1ccccc1)c1ccccc1 | inactive: 0.8 |
| Cc1c2non([O-])c-2c(C)[n+](=O)[n+]1[O-] | inactive: 1 |
